# Measured values: US20120020915A1, “Compounds and Methods for Treating Cancer and Diseases of the Central Nervous System” (QUEENS UNIVERSITY AT KINGSTON, priority 2007, published 2012)
# Experiments:
# HO-2 (rat brain) = target: T1, HO-2 (rat brain) (Rattus norvegicus, UniProt P23711); test: HO enzymatic activity, rat brain microsomal fraction (CO formation from methemalbumin); assay type: biochemical; conditions: mean ± SD of replicate experiments
# T1 construct: brain microsomes were used as a source of HO-2; from tissue; host or cells: brain microsomal fraction of adult male Sprague-Dawley rats
# T1 sequence (P23711 1-315): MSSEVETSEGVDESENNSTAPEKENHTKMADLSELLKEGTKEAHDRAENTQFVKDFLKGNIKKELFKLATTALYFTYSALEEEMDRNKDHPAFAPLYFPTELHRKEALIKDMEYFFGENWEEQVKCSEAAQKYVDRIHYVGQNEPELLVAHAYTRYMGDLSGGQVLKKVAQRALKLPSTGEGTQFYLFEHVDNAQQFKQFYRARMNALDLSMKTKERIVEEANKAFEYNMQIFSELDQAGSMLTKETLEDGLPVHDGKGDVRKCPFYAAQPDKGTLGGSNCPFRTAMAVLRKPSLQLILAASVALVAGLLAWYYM
# Procedure: (§1) Incubations for HO activity analysis were done under conditions for which the rate of CO formation (pmol CO×min^−1×mg protein^−1) was linear with respect to time and microsomal protein concentration. Briefly, reaction mixtures (150 μL) consisting of 100 mM phosphate buffer (pH 7.4), 50 μM methemalbumin, and 1 mg/mL protein were pre-incubated with the inhibitors at final concentrations ranging from 0.1-100 μM for 10 minutes at 37° C. Reactions were initiated by adding NADPH at a final concentration of 1 mM and incubations were performed for an additional 15 minutes at 37° C.
# (§2) Incubations for HO activity analysis were done under conditions for which the rate of CO formation (pmol CO/mg protein/minute) was linear with respect to time and microsomal protein concentration. […] Reactions were stopped by instantly freezing the reaction mixture on pulverized dry ice and CO formation was measured by gas chromatography using a TA 3000R Process Gas Analyzer (Trace Analytical/Ametek, Newark, Del., USA).
# (§3) The values on the abscissa represent the decimal logarithm of the inhibitor's concentration (in μM), whereas the values of the activity on the ordinate are expressed as a percentage of the control experiments without inhibitor. […]
# HO-1 (rat spleen) = target: T2, HO-1 (rat spleen) (Rattus norvegicus, UniProt P06762); test: HO enzymatic activity, rat spleen microsomal fraction (CO formation from methemalbumin); assay type: biochemical; conditions: mean ± SD of replicate experiments
# T2 construct: Spleen microsomes were used as a source of HO-1; from tissue; host or cells: spleen microsomal fraction of adult male Sprague-Dawley rats
# T2 sequence (P06762 1-289): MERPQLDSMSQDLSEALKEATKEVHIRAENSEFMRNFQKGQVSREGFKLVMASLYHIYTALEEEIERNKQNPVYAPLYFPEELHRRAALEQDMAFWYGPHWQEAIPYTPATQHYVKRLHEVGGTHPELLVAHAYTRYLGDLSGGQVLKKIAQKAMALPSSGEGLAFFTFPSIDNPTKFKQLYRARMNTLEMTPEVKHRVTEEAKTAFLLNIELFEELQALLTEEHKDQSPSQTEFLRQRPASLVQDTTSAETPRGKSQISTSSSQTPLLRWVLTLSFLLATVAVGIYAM
# Procedure: as §1, §2, §3
substance,measurement,setting,value
"(2R,4R)-2-[2-(4-chlorophenyl)ethyl]-2-[1H-imidazol-1-yl)methyl]-4-[{(4-aminophenyl)thio}methyl]-1,3-dioxolane dihydrochloride [QC-24]",IC50,HO-2 (rat brain),> 100 µM
same,IC50,HO-1 (rat spleen),47 ± 21 µM
